Consider three compounds from US8586579B2, “Anellated pyridine compounds” (Hoffmann-La Roche Inc., priority 2010, dated 2013).

By UniProt entry, the sequences of proteins in these tests, tags left out.
UniProt P35462, whole entry: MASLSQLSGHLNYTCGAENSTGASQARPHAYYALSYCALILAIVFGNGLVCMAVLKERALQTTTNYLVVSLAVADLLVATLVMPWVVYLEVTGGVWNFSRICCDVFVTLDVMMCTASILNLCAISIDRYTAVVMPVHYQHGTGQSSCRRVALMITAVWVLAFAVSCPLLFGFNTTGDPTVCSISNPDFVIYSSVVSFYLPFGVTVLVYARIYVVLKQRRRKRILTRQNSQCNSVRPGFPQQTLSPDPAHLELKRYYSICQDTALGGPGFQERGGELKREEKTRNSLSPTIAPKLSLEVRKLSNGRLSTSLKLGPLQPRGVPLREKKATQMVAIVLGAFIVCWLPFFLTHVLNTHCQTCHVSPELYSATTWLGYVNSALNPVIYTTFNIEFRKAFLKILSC
UniProt P28223, whole entry: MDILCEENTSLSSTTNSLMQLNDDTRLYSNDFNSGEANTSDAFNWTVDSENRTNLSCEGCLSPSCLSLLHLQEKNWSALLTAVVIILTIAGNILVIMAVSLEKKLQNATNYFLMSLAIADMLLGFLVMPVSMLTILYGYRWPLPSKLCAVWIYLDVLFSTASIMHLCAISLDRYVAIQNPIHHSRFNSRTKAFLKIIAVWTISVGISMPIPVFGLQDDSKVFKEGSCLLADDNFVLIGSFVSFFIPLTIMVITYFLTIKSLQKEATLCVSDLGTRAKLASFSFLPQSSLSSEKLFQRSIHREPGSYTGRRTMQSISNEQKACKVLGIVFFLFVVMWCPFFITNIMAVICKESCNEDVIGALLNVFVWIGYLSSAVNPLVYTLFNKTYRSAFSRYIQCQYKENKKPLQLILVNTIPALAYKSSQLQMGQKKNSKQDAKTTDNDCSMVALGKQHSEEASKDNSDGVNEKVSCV
UniProt P14416, whole entry: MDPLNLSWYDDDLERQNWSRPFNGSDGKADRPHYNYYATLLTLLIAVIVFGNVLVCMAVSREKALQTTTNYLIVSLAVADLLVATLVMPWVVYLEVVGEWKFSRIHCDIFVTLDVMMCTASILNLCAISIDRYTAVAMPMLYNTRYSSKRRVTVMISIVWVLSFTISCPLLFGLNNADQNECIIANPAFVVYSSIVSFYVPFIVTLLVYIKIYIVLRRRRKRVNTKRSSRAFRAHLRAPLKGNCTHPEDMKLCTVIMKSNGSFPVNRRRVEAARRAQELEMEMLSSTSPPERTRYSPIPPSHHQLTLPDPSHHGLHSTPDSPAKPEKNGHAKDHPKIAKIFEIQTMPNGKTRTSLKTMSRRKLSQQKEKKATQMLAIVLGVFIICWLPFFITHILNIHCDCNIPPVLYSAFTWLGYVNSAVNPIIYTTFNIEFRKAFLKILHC

For one assay, the target named is human D3 receptor (Homo sapiens (Human), UniProt P35462). Nature of the assay: Radioligand binding assay, [3H]-spiperone, human D3 receptor. As for the experimental part:
(§1) HEK293 EBNA cells were transiently transfected with expression plasmids encoding for the human D2 or D3 or for the human 5-HT2A receptor, respectively. The cells were harvested 48 h post-transfection, washed three times with cold PBS and stored at −80° C. prior to use. The pellet was suspended in cold 50 mM Tris-HCl buffer comprising 10 mM EDTA (pH 7.4) and was homogenized with a Polytron (Kinematica AG, Basel, Switzerland) for 20-30 sec at 12.000 rpm. After centrifugation at 48.000×g for 30 min at 4° C., the pellet was resuspended in cold 10 mM Tris-HCl buffer comprising 0.1 mM EDTA (pH 7.4), homogenized, and centrifuged as above. This pellet was further resuspended in a smaller volume of ice cold 10 mM Tris-HCl buffer comprising 0.1 mM EDTA (pH 7.4) and homogenized with a Polytron for 20-30 sec at 12.000 rpm. The protein content of this homogenate was determined with the Bio-Rad (Bradford) Protein Assay (Biorad Laboratories GmbH, München, Germany) according to the instructions of the manufacturer using gamma globulin as the standard. This homogenate was stored at −80° C. in aliquots and thawed immediately prior to use. […]
The binding affinity (Ki) of the compounds was determined using radioligand binding. […] The nonspecific binding was determined with equally composed reaction mixtures in the presence of 10 μM unlabelled spiperone. Per well 45 μl of Microscint 40 (Perkin Elmer, Schwerzenbach, Switzerland) was added, plates for sealed, shaken for 20 min and counted for 3 min on a Topcount Microplate Scintillation Counter (Can berra Packard SA, Zürich, Switzerland) with quenching correction.
The CPM value for each duplicate of a concentration of competing compound was averaged (y1), then the % specific binding was calculated according to the equation (((y1−non-specific)/(total binding−non-specific))×100). […] The affinity constant (K) was calculated using the Cheng-Prusoff equation Ki=(IC50/1+([L]/Kd), where [L] is the concentration of radioligand and Kd is the dissociation constant of the radioligand at the receptor as determined by the saturation isotherm.

The target of a further assay is human 5-HT2A receptor (Homo sapiens (Human), UniProt P28223). Put plainly: Radioligand binding assay, [3H]-ketanserin, human 5-HT2A receptor. The procedure:
as §1, with “This pellet was further resuspended in a smaller volume of ice cold 10 mM Tris-HCl buffer comprising 0.1 mM EDTA (pH 7.4) and homogenized with a Polytron for 20-30 sec at 12.000 rpm.” left out, “standard.” for “standard. This homogenate was stored at −80° C. in aliquots and thawed immediately prior to use.”
(§2) The binding affinity (Ki) of the compounds was determined using radioligand binding. […] The nonspecific binding was determined with equally composed reaction mixtures in the presence of 10 μM unlabelled spiperone. Per well 45 μl of Microscint 40 (Perkin Elmer, Schwerzenbach, Switzerland) was added, plates for sealed, shaken for 20 min and counted for 3 min on a Topcount Microplate Scintillation Counter (Can berra Packard SA, Zürich, Switzerland) with quenching correction. […]

The target in another assay is human D2 receptor (Homo sapiens (Human), UniProt P14416). Nature of the assay: Radioligand binding assay, [3H]-spiperone, human D2 receptor. As for the experimental part:
as §1, with “This pellet was further resuspended in a smaller volume of ice cold 10 mM Tris-HCl buffer comprising 0.1 mM EDTA (pH 7.4) and homogenized with a Polytron for 20-30 sec at 12.000 rpm.” left out, “standard.” for “standard. This homogenate was stored at −80° C. in aliquots and thawed immediately prior to use.”
as §2

[1] abbreviates: membranes of HEK293 EBNA cells expressing human D3, 0.5 nM [3H]-spiperone.

Where two headings read alike, the source gives them in different places.

On to `O=C(C[C@@H]1COCCO1)N[C@H]1CC[C@H](CCN2CCN(c3nccc4c3CCO4)CC2)CC1` [Example 61, trans-N-(4-{2-[4-(2,3-Dihydro-furo[3,2-c]pyridin-4-yl)-piperazin-1-yl]-ethyl}-cyclohexyl)-2-(R)-[1,4]dioxan-2-yl-acetamide], for which, at human D3 receptor (setting [1]), the Ki – broadly, a dissociation constant, usually derived from enzyme kinetics or from competition with a known ligand – is 18.7 nM.
On the same count and under the same terms, the value for `O=C(C[C@H]1COCCO1)N[C@H]1CC[C@H](CCN2CCN(c3nccc4c3CCO4)CC2)CC1` [Example 67, trans-N-(4-{2-[4-(2,3-Dihydro-furo[3,2-c]pyridin-4-yl)-piperazin-1-yl]-ethyl}-cyclohexyl)-2-(S)-[1,4]dioxan-2-yl-acetamide] was 24.3 nM.
Consider `Cc1ccc(C(=O)N[C@H]2CC[C@H](CCN3CCN(c4nccc5c4CCO5)CC3)CC2)cn1` [Example 116, trans-N-(4-{2-[4-(2,3-Dihydro-furo[3,2-c]pyridin-4-yl)-piperazin-1-yl]-ethyl}-cyclohexyl)-6-methyl-nicotinamide], for which the Ki on human 5-HT2A receptor turned out to be 15.5 nM; at human D2 receptor it was 313 nM; on human D3 receptor, 52.1 nM.
